{
  "source": "patent US6482815B1",
  "about": "(priority 1999, dated 2002)",
  "key": {"NALM-6": {"system": "NALM-6", "assay": "MTT cytotoxicity assay, NALM-6 cells", "assay_type": "cell-based, human", "conditions": "read-out: NALM-6 IC50, 24-36 hours incubation"}, "RS4;11": {"system": "RS4;11", "assay": "MTT cytotoxicity assay, RS4;11 cells", "assay_type": "cell-based, human", "conditions": "read-out: RS4;11 IC50, 24-36 hours incubation"}, "MOLT-3": {"system": "MOLT-3", "assay": "MTT cytotoxicity assay, MOLT-3 cells", "assay_type": "cell-based, human", "conditions": "read-out: MOLT-3 IC50, 24-36 hours incubation"}, "BT20": {"system": "BT20", "assay": "MTT cytotoxicity assay, BT20 breast tumor cells", "conditions": "for IC50: read-out: BT20 IC50, 24-36 hours incubation"}, "ALL1": {"system": "ALL1", "assay": "MTT cytotoxicity assay, ALL1 cells", "assay_type": "cell-based, human", "conditions": "read-out: ALL1 IC50, 24-36 hours incubation"}, "[1]": {"system": "leukemic cell lines (NALM-6, MOLT-3, ALL1, RS4;11)", "assay": "MTT cytotoxicity assay, all leukemic cell lines"}},
  "data": [
    {"compound": "O=[As](O)(O)c1ccccc1Nc1ncnc2[nH]cnc12", "values": [
      {"measurement": "IC50", "setting": "NALM-6", "result": 30.8, "unit": "µM"},
      {"measurement": "IC50", "setting": "RS4;11", "result": "> 250", "unit": "µM"},
      {"measurement": "IC50", "setting": "MOLT-3", "result": "> 250", "unit": "µM"},
      {"measurement": "IC50", "setting": "BT20", "result": "> 250", "unit": "µM"},
      {"measurement": "IC50", "setting": "ALL1", "result": "> 250", "unit": "µM"}
    ]},
    {"compound": "2,6-Dimethoxyl4[(4′-aminophenylazo)-phenyl arsenic acid]-1,3,5-triazine", "values": [
      {"measurement": "IC50", "setting": "NALM-6", "result": 64.8, "unit": "µM"},
      {"measurement": "IC50", "setting": "RS4;11", "result": 23.3, "unit": "µM"},
      {"measurement": "IC50", "setting": "MOLT-3", "result": 50.4, "unit": "µM"},
      {"measurement": "cytotoxic against the breast cancer cell line BT20 (in words)", "setting": "BT20", "result": "cytotoxic"},
      {"measurement": "IC50", "setting": "BT20", "result": 21.5, "unit": "µM"},
      {"measurement": "cytotoxic for all of the leukemic cell lines (in words)", "setting": "[1]", "result": "cytotoxic for all of the leukemic cell lines"},
      {"measurement": "IC50", "setting": "ALL1", "result": 29.1, "unit": "µM"}
    ]}
  ]
}
